Data taken from PubChem BioAssay AID449763 (Sanford-Burnham Center for Chemical Genomics, 2010).
The list shows a part of the results, in another mix than the full data. Active and inactive are the calls of the source.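 The calls were made as follows: active = at 10 µM dose, activation of 40% or more, normalized to positive control; inactive = the rest.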

Test: activators of apoptotic CHOP UPR arm, primary screen, cell-based, CHO-CHOP luciferase reporter, luminescence, uHTS (AID 449763);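 also: 100% = tunicamycin at 10 µg/mL and 0% = DMSO alone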
Details: at 10 µM, active compounds read high, percent of tunicamycin response over DMSO baseline
Method in brief: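 Material: CHO-CHOP cells, stable luciferase reporter of PERK-eIF2a-CHOP signalling; quantity: 500 reporter cells seeded per well; buffer or medium: F12 medium containing 10% fetal bovine serum; compound: one dose, 10 µM in 0.5% DMSO; incubation: 6 h compound treatment, 37 °C; measured by: Steady-Glo luciferase luminescence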

Row | Structure (SMILES) | activation
1 | CCC(=O)N(c1ccccc1)C1(COC)CCN(CCn2nnn(CC)c2=O)CC1 | inactive: 0.35%
2 | CCC(=O)N(c1ccccc1)C1(COC)CCN(CCc2cccs2)CC1 | inactive: -1.52%
